Laboratory results as given in article PMC5388777 (Frontiers in Psychiatry, 2017).

The chains behind the UniProt entries cited, without tags or fusion partners.
UniProt P35372, whole entry: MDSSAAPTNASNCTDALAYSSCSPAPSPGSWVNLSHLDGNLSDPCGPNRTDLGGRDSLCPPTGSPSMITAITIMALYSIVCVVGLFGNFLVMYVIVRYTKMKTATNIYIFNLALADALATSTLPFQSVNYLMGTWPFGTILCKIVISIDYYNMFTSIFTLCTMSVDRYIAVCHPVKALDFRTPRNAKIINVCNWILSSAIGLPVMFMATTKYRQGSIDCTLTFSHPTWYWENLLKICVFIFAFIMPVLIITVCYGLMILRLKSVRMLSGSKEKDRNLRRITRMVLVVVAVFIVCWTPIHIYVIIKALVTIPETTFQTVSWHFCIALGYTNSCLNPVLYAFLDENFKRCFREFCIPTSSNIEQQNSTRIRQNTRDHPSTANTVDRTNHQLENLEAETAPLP
UniProt P41143, whole entry: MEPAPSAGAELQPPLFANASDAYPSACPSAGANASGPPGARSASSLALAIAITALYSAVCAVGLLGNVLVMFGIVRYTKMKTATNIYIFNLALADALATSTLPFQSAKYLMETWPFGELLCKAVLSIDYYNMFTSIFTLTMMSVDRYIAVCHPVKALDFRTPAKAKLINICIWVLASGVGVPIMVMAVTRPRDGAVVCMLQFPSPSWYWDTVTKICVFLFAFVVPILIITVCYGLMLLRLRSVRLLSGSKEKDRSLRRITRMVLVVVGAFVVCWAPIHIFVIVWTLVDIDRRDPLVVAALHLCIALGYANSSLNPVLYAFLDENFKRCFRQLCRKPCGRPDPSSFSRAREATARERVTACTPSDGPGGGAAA

How the values were obtained:
mu opioid receptor = target: T1, mu opioid receptor (Homo sapiens, UniProt P35372); assay type: biochemical
T1 construct: expressed in transfected cells; membranes prepared

delta opioid receptor = target: T2, delta opioid receptor (Homo sapiens, UniProt P41143); assay: [35S]GTPγS binding, CHO cell membranes; assay type: biochemical; settings: mean ± SEM
T2 construct: expressed in transfected cells; membranes prepared

| Compound | Mu % Stim. (mu opioid receptor) [%] | EC50 (delta opioid receptor) [µM] |
| --- | --- | --- |
| CC(C1CC1)N1CCC23CCCCC2C1Cc1ccc(O)cc13 (stereo not drawn) [PPL-103, α-methyl-cyclopropylmethyl-morphinan] | 22.6 ± 0.05 |  |
| C[C@@H](NC(=O)[C@@H](N)Cc1ccc(O)cc1)C(=O)NCC(=O)N(C)[C@@H](Cc1ccccc1)C(=O)NCCO [DAMGO, [D-Ala2, N-MePhe4, Gly-ol]-enkephalin, reference compound] |  | > 10 |
